Test [1] deals with T1, PARP1 (Homo sapiens, UniProt P09874). Put plainly: PARP1-enzyme assay (NAD/NADH-Glo biochemical assay). The note with it: read-out: PARP1-Enzyme Assay, recombinant PARP1, NAD+ consumption.
Test [2] deals with Poly/Mono-ADP Ribose in U2OS cells. As to the kind of experiment: PAR in cell western assay (parylation) in U2OS cells.
For another test, the system named is A2780 cells. As to the kind of experiment: Cell proliferation assay (A2780).
Test [3] addresses T1, PARP1. As to the kind of experiment: PARP trapping assay in U2OS cells.
Another test has as its system MDA-MB-436 cells. Put plainly: Cell proliferation assay (MDA-MB-436).
Setting [4] is: read-out: Parylation (U2OS), 6 hrs, 2 mM H2O2, tested form: TFA salt.
Where [5] appears, read: read-out: Cell proliferation (A2780), 7 days, tested form: TFA salt.
Setting [6] is: read-out: PARP Trapping (U2OS), MMS, 4 hrs, tested form: TFA salt.
The mark [7] stands for this setting: read-out: Cell Proliferation (MDA-MB-436), 7 days, tested form: TFA salt.
Where [8] appears, read: read-out: Parylation (U2OS), 6 hrs, 2 mM H2O2.
The mark [9] stands for this setting: read-out: Cell proliferation (A2780), 7 days.
[10] abbreviates: read-out: PARP Trapping (U2OS), MMS, 4 hrs.
The mark [11] stands for this setting: read-out: Cell Proliferation (MDA-MB-436), 7 days.

Chains of the proteins cited; added tags and fusions are not shown.
UniProt P09874, whole entry: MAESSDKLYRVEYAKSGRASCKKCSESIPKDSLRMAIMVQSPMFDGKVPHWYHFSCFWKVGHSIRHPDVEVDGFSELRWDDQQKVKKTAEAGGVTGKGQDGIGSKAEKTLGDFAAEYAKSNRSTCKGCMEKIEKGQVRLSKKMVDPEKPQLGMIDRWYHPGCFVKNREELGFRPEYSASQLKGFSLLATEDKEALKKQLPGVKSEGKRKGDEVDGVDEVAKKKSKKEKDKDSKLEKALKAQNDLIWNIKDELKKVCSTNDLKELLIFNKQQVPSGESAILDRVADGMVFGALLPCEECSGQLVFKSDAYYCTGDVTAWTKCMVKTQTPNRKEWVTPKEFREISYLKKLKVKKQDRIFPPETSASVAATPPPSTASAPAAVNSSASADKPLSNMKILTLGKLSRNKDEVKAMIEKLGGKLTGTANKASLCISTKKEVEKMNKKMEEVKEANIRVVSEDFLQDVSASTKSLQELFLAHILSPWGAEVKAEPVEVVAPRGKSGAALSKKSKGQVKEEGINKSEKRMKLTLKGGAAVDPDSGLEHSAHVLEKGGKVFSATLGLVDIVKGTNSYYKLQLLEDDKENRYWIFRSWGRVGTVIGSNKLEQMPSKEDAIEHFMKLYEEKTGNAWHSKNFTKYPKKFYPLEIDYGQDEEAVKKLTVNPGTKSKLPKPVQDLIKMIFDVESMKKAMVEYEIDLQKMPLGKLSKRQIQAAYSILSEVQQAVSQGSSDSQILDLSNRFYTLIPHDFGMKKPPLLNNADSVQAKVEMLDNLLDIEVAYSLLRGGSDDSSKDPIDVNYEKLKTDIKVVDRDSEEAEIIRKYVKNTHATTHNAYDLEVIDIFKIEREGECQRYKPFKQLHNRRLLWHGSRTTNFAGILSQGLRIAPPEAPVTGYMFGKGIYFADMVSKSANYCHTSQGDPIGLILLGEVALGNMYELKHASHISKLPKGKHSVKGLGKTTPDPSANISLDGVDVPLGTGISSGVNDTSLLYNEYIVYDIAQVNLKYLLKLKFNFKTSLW

Like-named read-outs stand apart in the source and are kept apart here.

As for `O=C(N[C@@H](C(=O)N1CCC(OC2CCN(CC(=O)N3CCN(C(=O)c4cc(Cc5n[nH]c(=O)c6ccccc56)ccc4F)CC3)CC2)CC1)C1CCCCC1)c1cccc([C@@H]2CCCN(C(=O)CNC3CC3)C2)c1`, the IC50 was under 0.001 µM at PARP1 [1] (tested form: TFA salt); 0.1 to 1 µM in test [2] (setting [4]); 0.01 to 0.1 µM in the test with A2780 cells (setting [5]); 0.1 to 1 µM on PARP1 [3] (setting [6]); 0.01 to 0.1 µM in the test with MDA-MB-436 cells (setting [7]).
Turning to `CCOc1cc(OC)ccc1CNCC(=O)N1CCC[C@@H](c2cccc(C(=O)N[C@@H](C(=O)N3CCC(CN4CCN(CC(=O)N5CCN(C(=O)c6cc(Cc7n[nH]c(=O)c8ccccc78)ccc6F)CC5)CC4)CC3)C3CCCCC3)c2)C1`, the IC50 at PARP1 [1] was under 0.001 µM; in test [2] (setting [8]) it was 0.1 to 1 µM; with A2780 cells (setting [9]), 0.1 to 1 µM; on PARP1 [3] (setting [10]), 0.01 to 0.1 µM; in the test on MDA-MB-436 cells (setting [11]), 0.01 to 0.1 µM.
For the compound `CCOc1cc(OC)ccc1CNCC(=O)N1CCCC(c2cccc(C(=O)N[C@@H](C(=O)N3CCC(CN4CCN(CC(=O)N5CCN(C(=O)c6cc(Cc7n[nH]c(=O)c8ccccc78)ccc6F)CC5)CC4)CC3)C3CCCCC3)c2)C1` (stereo partly drawn), the IC50 is under 0.001 µM at PARP1 [1]; 0.1 to 1 µM in test [2] (setting [8]); 1 to 10 µM in the test on A2780 cells (setting [9]); 0.1 to 1 µM on PARP1 [3] (setting [10]); 0.01 to 0.1 µM in the test with MDA-MB-436 cells (setting [11]).
For `O=C(N[C@@H](C(=O)N1CCN(CC2CCN(CC(=O)N3CCN(C(=O)c4cc(Cc5n[nH]c(=O)c6ccccc56)ccc4F)CC3)CC2)CC1)C1CCCCC1)c1cccc([C@@H]2CCCN(C(=O)CNCc3ccc(F)cc3F)C2)c1`, the IC50 was under 0.001 µM at PARP1 [1]; 0.01 to 0.1 µM in test [2] (setting [8]); 0.1 to 1 µM in the test with A2780 cells (setting [9]); 0.1 to 1 µM on PARP1 [3] (setting [10]); 0.01 to 0.1 µM in the test on MDA-MB-436 cells (setting [11]).
Consider `CCc1cccc(-c2cnc(C(=O)N3CCN(CC4CCN(CC(=O)N5CCN(C(=O)c6cc(Cc7n[nH]c(=O)c8ccccc78)ccc6F)CC5)CC4)CC3)c(NC(=O)CNCc3cccc(C)c3)c2)c1`, for which the IC50 on PARP1 [1] (tested form: FA salt) was under 0.001 µM; in test [2] (read-out: Parylation (U2OS), 6 hrs, 2 mM H2O2, tested form: FA salt), 0.1 to 1 µM; in the test on A2780 cells (read-out: Cell proliferation (A2780), 7 days, tested form: FA salt), 0.1 to 1 µM; at PARP1 [3] (read-out: PARP Trapping (U2OS), MMS, 4 hrs, tested form: FA salt), 0.01 to 0.1 µM; in the test with MDA-MB-436 cells (read-out: Cell Proliferation (MDA-MB-436), 7 days, tested form: FA salt) it was 0.01 to 0.1 µM.
Take `O=C(CNC1CC1)N1CCC[C@@H](c2cccc(C(=O)N3CCN(CC45CCC(C(=O)N6CCN(C(=O)c7cc(Cc8n[nH]c(=O)c9ccccc89)ccc7F)CC6)(CC4)CO5)CC3)c2)C1`: the IC50 is 0.001 to 0.01 µM on PARP1 [1] (tested form: TFA salt); 0.01 to 0.1 µM in test [2] (setting [4]); 0.01 to 0.1 µM in the test with A2780 cells (setting [5]); 0.01 to 0.1 µM on PARP1 [3] (setting [6]); under 0.01 µM in the test on MDA-MB-436 cells (setting [7]).
For `O=C(N[C@@H](C(=O)N1CCC(OC2CCN(CC(=O)N3CCN(C(=O)c4cc(Cc5n[nH]c(=O)c6ccccc56)ccc4F)CC3)CC2)CC1)C1CCCCC1)c1cccc([C@H]2CCCN(C(=O)CNC3CC3)C2)c1`, the IC50 is under 0.001 µM on PARP1 [1] (tested form: TFA salt); 0.1 to 1 µM in test [2] (setting [4]); 0.1 to 1 µM with A2780 cells (setting [5]); 0.1 to 1 µM at PARP1 [3] (setting [6]); 0.1 to 1 µM in the test with MDA-MB-436 cells (setting [7]).
With `O=C(CNC1CC1)N1CCC[C@H](c2cccc(C(=O)N3CCN(CC45CCC(C(=O)N6CCN(C(=O)c7cc(Cc8n[nH]c(=O)c9ccccc89)ccc7F)CC6)(CC4)CO5)CC3)c2)C1`, the IC50 in test [2] (setting [4]) is 0.01 to 0.1 µM; in the test on A2780 cells (setting [5]), 0.01 to 0.1 µM; on PARP1 [3] (setting [6]), 0.01 to 0.1 µM; in the test on MDA-MB-436 cells (setting [7]), under 0.01 µM.

These data come from US20250127907A1, “PARP INHIBITORS” (Stablix, Inc., priority 2023, published 2025).
